Laboratory results taken from patent US9260430B2, “Use of TRPA1 antagonists to prevent or treat infections caused by biological-warfare agents” (dated 2016).

Amino acid sequences for entries named in this document (tags omitted).
UniProt Q6RI86, whole entry, looked up: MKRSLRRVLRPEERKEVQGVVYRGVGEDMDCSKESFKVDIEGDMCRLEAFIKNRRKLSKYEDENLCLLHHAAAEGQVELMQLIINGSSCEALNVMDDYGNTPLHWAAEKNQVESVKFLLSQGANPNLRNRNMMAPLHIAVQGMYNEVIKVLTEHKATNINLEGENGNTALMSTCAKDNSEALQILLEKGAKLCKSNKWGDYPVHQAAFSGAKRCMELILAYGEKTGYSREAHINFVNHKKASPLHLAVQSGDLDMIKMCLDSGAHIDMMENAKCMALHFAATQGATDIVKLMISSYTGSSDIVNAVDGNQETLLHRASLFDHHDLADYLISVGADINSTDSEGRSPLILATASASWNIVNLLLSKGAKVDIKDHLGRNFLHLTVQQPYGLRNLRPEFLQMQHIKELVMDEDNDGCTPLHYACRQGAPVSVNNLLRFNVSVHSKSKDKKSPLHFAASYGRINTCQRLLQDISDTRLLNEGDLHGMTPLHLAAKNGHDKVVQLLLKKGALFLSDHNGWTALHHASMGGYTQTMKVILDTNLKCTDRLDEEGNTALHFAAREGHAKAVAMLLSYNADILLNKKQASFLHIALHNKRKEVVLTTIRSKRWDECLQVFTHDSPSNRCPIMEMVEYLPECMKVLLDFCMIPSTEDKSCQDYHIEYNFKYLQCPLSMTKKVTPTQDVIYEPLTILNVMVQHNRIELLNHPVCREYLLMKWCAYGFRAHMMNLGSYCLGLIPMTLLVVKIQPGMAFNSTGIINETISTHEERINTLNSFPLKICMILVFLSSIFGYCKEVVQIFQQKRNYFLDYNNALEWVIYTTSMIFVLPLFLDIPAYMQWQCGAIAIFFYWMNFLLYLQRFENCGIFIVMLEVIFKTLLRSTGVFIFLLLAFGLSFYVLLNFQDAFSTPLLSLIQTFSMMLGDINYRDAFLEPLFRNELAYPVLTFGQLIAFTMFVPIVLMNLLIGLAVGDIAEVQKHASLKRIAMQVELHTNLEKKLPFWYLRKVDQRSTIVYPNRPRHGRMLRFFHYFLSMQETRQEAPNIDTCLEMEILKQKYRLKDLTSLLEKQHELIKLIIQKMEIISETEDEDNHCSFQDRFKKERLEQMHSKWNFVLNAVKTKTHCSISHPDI
UniProt O75762, whole entry, looked up: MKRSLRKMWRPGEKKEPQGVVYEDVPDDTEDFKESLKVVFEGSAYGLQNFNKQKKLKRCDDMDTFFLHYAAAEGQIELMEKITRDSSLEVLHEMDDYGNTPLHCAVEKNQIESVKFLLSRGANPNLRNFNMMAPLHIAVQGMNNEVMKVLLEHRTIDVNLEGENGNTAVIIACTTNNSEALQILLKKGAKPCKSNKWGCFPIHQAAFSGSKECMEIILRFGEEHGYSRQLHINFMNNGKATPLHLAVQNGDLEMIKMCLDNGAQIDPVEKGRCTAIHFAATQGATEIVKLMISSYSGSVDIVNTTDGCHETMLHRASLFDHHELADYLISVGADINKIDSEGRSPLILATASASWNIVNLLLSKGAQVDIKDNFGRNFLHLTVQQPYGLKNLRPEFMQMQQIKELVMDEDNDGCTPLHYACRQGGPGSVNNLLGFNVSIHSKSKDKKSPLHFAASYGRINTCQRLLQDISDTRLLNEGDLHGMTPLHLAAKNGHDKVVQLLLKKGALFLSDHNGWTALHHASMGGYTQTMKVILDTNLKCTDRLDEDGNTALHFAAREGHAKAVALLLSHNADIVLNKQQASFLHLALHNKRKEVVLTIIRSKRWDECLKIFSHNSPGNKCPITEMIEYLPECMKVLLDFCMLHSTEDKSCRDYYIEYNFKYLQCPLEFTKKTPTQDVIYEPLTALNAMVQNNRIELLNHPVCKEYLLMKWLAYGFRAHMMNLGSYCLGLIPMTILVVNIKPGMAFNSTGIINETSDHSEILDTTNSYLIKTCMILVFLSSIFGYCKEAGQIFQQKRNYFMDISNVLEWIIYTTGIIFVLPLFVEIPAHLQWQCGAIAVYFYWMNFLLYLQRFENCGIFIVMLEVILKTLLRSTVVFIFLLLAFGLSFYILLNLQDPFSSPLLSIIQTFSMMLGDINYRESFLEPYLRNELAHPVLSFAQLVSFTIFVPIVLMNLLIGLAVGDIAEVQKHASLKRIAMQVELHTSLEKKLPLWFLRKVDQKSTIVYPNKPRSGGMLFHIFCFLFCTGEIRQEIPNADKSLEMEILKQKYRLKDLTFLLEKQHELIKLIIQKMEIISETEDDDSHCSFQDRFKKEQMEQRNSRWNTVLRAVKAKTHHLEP

Legend:
[1] = target: rat TRPA1 (Rattus norvegicus, UniProt Q6RI86); assay: Rat TRPA1 potency
[2] = target: human TRPA1 (Homo sapiens, UniProt O75762); assay: FLIPR assay, AITC induced activation

In the case of `CCC(=N\O)/C(C)=C/c1ccc(F)cc1`, the “improvement in rat potency over AP18 (36)” value [1] is reported as “greater than 20 fold” and the “improvement in human potency over AP18 (36)” value [2] is reported as “over 100 fold”.
